The list is not random: actives were taken first. Their share in the collection is about 1.5%.
Env fusion inh = HIV envelope-mediated fusion inhibition | HeLa-JRFL Env/CEM21 cell fusion, luciferase | inhibition, % at 12.3 µM | hit rate 1.1% among 360,000 | AID 651610;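 active means mean replicate inhibition score of at least 50 and every replicate individually at or above 50; inconclusive means only one of the two criteria met; inactive means mean below 50 and not all replicates reaching 50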;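 further: 0% = plate neutral controls and 100% = maraviroc near 300 nM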
Cneo AK release = causes C. neoformans cell lysis | hit rate 0.2% among 360,000 | adenylate kinase release luminescence, 4 h; normalised: neutral wells 0, clomiphene wells 100 | lysis activity, % at 15 µM;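 active means mean lysis activity across replicates of at least 80%, whatever share of replicates individually reach that level; inactive means mean lysis activity below 80%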
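Material: C. neoformans cells; Schedule: 4 h static compound exposure, 37 °C, read 1 h post-reagent; Measured by: adenylate kinase release luminescence; Read-out: signal increase indicating cell lysis; Controls: Clomiphene as positive lysis control.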
PGC1a acetyl inh = modulators of PGC1a acetylation; U2OS PGC1a acetylation, AlphaScreen anti-acetyl-lysine; with virally co-expressed GCN5 acetyltransferase; inhibition, % at 15.6 µM; hit rate 0.17% among 350,000;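 active means every replicate shows inhibition of at least 40%; inconclusive means mean inhibition at least 40% but some replicate below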;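 further: 0% = neutral control wells and 100% = positive control wells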
miR122 inh = blocks miR-122 activity in Huh7 sensor cells | hit rate 0.3% among 340,000 | Huh7 miR-122 Renilla luciferase sensor, 48 h; neutral wells = 0, positive control = 100 | AID 602342 | activation (reporter increase), % at 12.5 µM;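 active means mean replicate activation score at least 90 and every replicate individually at or above 90; inconclusive means only one of the two criteria met; inactive means neither criterion met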;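 further: higher luciferase means less miR-122 activity so hits act as miR-122 inhibitors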
FN deposition inh = fibronectin deposition inhibition; AH1F fibroblasts, Alexa488-fibronectin deposition fluorescence, overnight; inhibition, % at 12.6 µM; hit rate 0.086% among 350,000; AID 743247;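 active means mean inhibition across replicates of 30% or more, regardless of how many single replicates reach that level; inconclusive means mean under 30% yet at least half of replicates reach 30%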;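 further: positive control wells lacked labelled fibronectin entirely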
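Material – AH1F fibroblast monolayer, labelled fibronectin deposition · Reagent – labelled fibronectin 24 nM · Timing – 1 h adhesion, overnight exposure · Measured by – fluorescence at 485 nm excitation, 525 nm emission · Read-out – inhibition of fibronectin deposition signal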
UUG fidelity = yeast start codon fidelity modulation; AID 602363; activity score, % at 18.7 µM; S. cerevisiae UUG-firefly luciferase reporter, luminescence/redox ratio; 0.13% of 350,000 active;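 active means replicate mean at a twofold rise or more, about +100% in these data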;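 further: firefly luciferase made from a UUG start codon reports start codon fidelity; reporter light over untreated wells divided by growth signal over untreated wells; some hits fall short of that in this replicate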
Starred values were filed as active, the others as inactive; [ ] = another dose, or the depositor's remark.

`CCc1nc(NC2CCCCC2)c(C#N)c2c1COC(C)(C)C2` gave Cneo AK release -4, PGC1a acetyl inh -2, miR122 inh -3 and UUG fidelity -11.
Screening CC(C)CNC(=O)C(=O)NC1CCCC1 returned Cneo AK release -2, PGC1a acetyl inh -3, miR122 inh -2 and UUG fidelity -19.
For O=C(C[C@@H]1C[C@@H]2c3cc(NC(=O)C4CCOCC4)ccc3O[C@@H]2[C@@H](CO)O1)NC1CCCC1 the results were Env fusion inh 8[16.7 µM], Cneo AK release -1, PGC1a acetyl inh 1, miR122 inh 2[16.7 µM], FN deposition inh 3 and UUG fidelity 23.
For CCC[N+]1(CC#CCC(c2ccccc2)c2ccccc2)CCCCC1 the results were Env fusion inh 74*, Cneo AK release 1, PGC1a acetyl inh 6, miR122 inh -7, FN deposition inh 4 and UUG fidelity -3.
C(#Cc1ccccc1)C[N+]1(CC#Cc2ccccc2)CCCCC1 was read as Env fusion inh 36, Cneo AK release 1, PGC1a acetyl inh -1, miR122 inh 3, FN deposition inh 8 and UUG fidelity -12.
Screening CC(C)OC(=O)c1ccccc1C(=O)c1ccc(N)c([N+](=O)[O-])c1 returned Env fusion inh 13 and FN deposition inh -4.
For COc1ccc(NC(=O)/C(Cl)=C(/Cl)S(=O)Cc2ccccc2)cn1 (stereo not given) the results were PGC1a acetyl inh 71* and miR122 inh -22.
For COc1ccc(NC(=O)Cc2ccccc2)cn1 the results were Env fusion inh -15, Cneo AK release 1, miR122 inh -4, FN deposition inh 5 and UUG fidelity -12.
Cc1ccccc1OCC(O)CN1CCC(C)CC1 (stereo not given) was read as Env fusion inh -5 and FN deposition inh 7.
Screening O=C(NCCOc1ccccc1)c1cc([N+](=O)[O-])ccc1N1CCOCC1 returned Env fusion inh 2, Cneo AK release 1, PGC1a acetyl inh 8, miR122 inh 39, FN deposition inh -22 and UUG fidelity -15.
Screening CC1CCN(c2ccccc2NC(=O)c2cc([N+](=O)[O-])ccc2N2CCOCC2)CC1 returned Env fusion inh 60*, Cneo AK release 3, PGC1a acetyl inh 1, miR122 inh -6, FN deposition inh 9 and UUG fidelity -16.
`O=C(NCCOc1ccccc1F)c1cc([N+](=O)[O-])ccc1N1CCOCC1` gave Env fusion inh 63*, Cneo AK release -10, PGC1a acetyl inh -3, miR122 inh 0 and UUG fidelity -15.
For CCc1ccccc1NC(=O)c1cc([N+](=O)[O-])ccc1N1CCOCC1 the results were Env fusion inh -15, Cneo AK release -3, miR122 inh -1, FN deposition inh 8 and UUG fidelity 4.
CC(C)(C)c1cc(C(=O)NCc2ccccc2)ccn1 was read as Env fusion inh 45, Cneo AK release 0, PGC1a acetyl inh 10, miR122 inh -3, FN deposition inh -1 and UUG fidelity -9.
`Cc1cc2nc(/C=C/c3nc4cc(C)c(C)cc4[nH]3)[nH]c2cc1C` gave Env fusion inh -12, Cneo AK release 2, PGC1a acetyl inh -5, FN deposition inh 6 and UUG fidelity -13.
Cc1cc2nc(/C=C/c3cccnc3)[nH]c2cc1C was read as Env fusion inh inactive, Cneo AK release -9, PGC1a acetyl inh 67*, miR122 inh 15, FN deposition inh -9 and UUG fidelity -18.
O=S(=O)(Nc1ccc(-c2nnc(SCc3ccc(Cl)cc3)o2)cc1)c1ccccc1 was read as Env fusion inh 9 and FN deposition inh -1.
Screening CSC1SCC2C(=O)N(C)C(C(C)C)C(=O)OCC(NC(=O)c3cnc4ccccc4n3)C(=O)NC(C)C(=O)N(C)C1C(=O)N(C)C(C(C)C)C(=O)OCC(NC(=O)c1cnc3ccccc3n1)C(=O)NC(C)C(=O)N2C (stereo not given) returned Env fusion inh 84*, PGC1a acetyl inh inconclusive, miR122 inh 7 and FN deposition inh 0.
For COc1ccc(C(NC(=O)c2c(F)c(F)c(F)c(F)c2F)c2ccccc2)cc1 (stereo not given) the results were Env fusion inh 2, Cneo AK release -2, PGC1a acetyl inh 85*, miR122 inh -15, FN deposition inh 5 and UUG fidelity 11.
`COc1ccc(C(NC(=O)c2cc(OC)ccc2OC)c2ccccc2)cc1` (stereo not given) gave Env fusion inh 16, Cneo AK release 1, FN deposition inh 3 and UUG fidelity 5.

Sorted by count of non-hydrogen atoms (lowest first): 3 of the compounds above.
For COc1ccc(C(NC(=O)c2c(F)c(F)c(F)c(F)c2F)c2ccccc2)cc1 (stereo not given) the results were Env fusion inh 2, Cneo AK release -2, PGC1a acetyl inh 85*, miR122 inh -15, FN deposition inh 5 and UUG fidelity 11.
O=S(=O)(Nc1ccc(-c2nnc(SCc3ccc(Cl)cc3)o2)cc1)c1ccccc1 was read as Env fusion inh 9 and FN deposition inh -1.
Screening CSC1SCC2C(=O)N(C)C(C(C)C)C(=O)OCC(NC(=O)c3cnc4ccccc4n3)C(=O)NC(C)C(=O)N(C)C1C(=O)N(C)C(C(C)C)C(=O)OCC(NC(=O)c1cnc3ccccc3n1)C(=O)NC(C)C(=O)N2C (stereo not given) returned Env fusion inh 84*, PGC1a acetyl inh inconclusive, miR122 inh 7 and FN deposition inh 0.

Next section.
Cc1ccccc1S(=O)(=O)N1C[C@@H]2C(C(=O)C[C@@H]3C(=O)N(C)C(=O)[C@@H]32)[C@@H]1c1ccc(Cl)cc1 (stereo not given in full) was read as Env fusion inh 61* and FN deposition inh -4.
`Cc1ccccc1S(=O)(=O)N1C[C@H]2[C@H]3C(=O)N(C4CCCCC4)C(=O)[C@H]3CC(=O)[C@H]2[C@@H]1c1ccc(Cl)cc1` gave Env fusion inh 132*, Cneo AK release 7, PGC1a acetyl inh -23, miR122 inh -7 and UUG fidelity 7.
Cc1ccc(S(=O)(=O)N2C[C@H]3[C@H]4C(=O)N(c5ccccc5)C(=O)[C@H]4CC(=O)[C@H]3[C@@H]2c2ccc(Cl)cc2)cc1 was read as Cneo AK release -11, PGC1a acetyl inh -4, miR122 inh -3, FN deposition inh 4 and UUG fidelity -7.
Screening CC(C)CC#Cc1ccc([C@H]2[C@@H](CO)N3C(=O)CN(C(=O)NC4CCCCC4)C[C@@H]23)cc1 returned PGC1a acetyl inh -3.
For CCOC(=O)c1ccoc1CN1CCN(S(=O)(=O)c2ccc(C)c(C)c2)CC1 the results were Env fusion inh 3, Cneo AK release -1, PGC1a acetyl inh 4, miR122 inh -9, FN deposition inh 1 and UUG fidelity -8.
`CCOC(=O)c1ccoc1CSCC(=O)N1CCN(S(=O)(=O)c2ccc(C)cc2)CC1` gave Env fusion inh 56*, Cneo AK release 1, PGC1a acetyl inh -9, miR122 inh -2, FN deposition inh 9 and UUG fidelity -5.
`Cc1ccc(NS(=O)(=O)c2ccc3c(c2)NC(=O)CO3)c(C)c1` gave Env fusion inh 2, Cneo AK release 0, PGC1a acetyl inh -11, miR122 inh 12, FN deposition inh -12 and UUG fidelity 12.
O=C1COc2ccc(S(=O)(=O)Nc3ccc(F)cc3)cc2N1 was read as Env fusion inh -2, Cneo AK release 0, PGC1a acetyl inh -7, miR122 inh 112*, FN deposition inh 5 and UUG fidelity -5.

Screening results as filed in PubChem.
